Values quoted from earlier work in patent US8334239B2, “High affinity VEGF-receptor antagonists” (The Board of Regents of the University of Texas System, priority 2007, dated 2012).

Chains of the proteins cited; added tags and fusions are not shown. Residues count along the entry.
UniProt P35968, 20-1356: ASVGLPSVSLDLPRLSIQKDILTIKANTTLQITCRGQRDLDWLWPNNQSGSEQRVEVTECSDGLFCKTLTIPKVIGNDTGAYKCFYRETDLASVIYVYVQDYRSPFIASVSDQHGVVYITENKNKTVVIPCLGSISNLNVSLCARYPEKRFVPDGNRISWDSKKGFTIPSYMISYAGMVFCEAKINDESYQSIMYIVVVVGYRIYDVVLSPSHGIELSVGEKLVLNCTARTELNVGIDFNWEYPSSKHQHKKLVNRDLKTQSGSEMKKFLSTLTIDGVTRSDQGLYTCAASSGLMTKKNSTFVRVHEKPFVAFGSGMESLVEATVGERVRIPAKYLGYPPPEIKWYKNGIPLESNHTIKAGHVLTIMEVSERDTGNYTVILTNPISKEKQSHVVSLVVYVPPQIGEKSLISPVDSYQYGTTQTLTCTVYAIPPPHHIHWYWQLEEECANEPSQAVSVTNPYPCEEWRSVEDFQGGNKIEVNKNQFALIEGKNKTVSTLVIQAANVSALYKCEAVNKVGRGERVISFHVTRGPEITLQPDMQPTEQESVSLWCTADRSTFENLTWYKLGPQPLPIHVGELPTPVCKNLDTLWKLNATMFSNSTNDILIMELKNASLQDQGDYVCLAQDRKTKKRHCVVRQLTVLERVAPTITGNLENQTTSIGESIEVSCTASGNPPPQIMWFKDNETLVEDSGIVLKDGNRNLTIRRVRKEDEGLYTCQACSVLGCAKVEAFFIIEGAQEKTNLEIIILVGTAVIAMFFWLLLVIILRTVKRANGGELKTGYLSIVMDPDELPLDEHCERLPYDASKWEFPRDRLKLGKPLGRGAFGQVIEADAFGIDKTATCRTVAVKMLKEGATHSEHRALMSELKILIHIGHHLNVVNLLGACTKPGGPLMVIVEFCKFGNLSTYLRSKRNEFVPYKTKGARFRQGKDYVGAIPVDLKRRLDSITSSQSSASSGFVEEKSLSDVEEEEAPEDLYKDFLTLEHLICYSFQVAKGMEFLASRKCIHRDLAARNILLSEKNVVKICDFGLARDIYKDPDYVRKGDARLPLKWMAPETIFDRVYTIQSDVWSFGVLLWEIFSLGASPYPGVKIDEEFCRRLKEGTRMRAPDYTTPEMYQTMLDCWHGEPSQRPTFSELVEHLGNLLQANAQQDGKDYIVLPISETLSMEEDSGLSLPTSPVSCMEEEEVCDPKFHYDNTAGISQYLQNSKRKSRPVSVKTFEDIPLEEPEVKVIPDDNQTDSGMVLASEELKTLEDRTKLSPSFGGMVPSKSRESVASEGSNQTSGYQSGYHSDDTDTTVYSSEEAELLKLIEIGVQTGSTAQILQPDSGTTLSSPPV

Target: VEGFR2 (Homo sapiens, UniProt P35968)
Conditions: read-out: KD for the receptor; cited from earlier work

VEGF
Kd: 0.05 nM
